Consider three compounds from patent US8309577B2, “Quinuclidine compounds as α-7 nicotinic acetylcholine receptor ligands” (Bristol-Myers Squibb Company, priority 2008, dated 2012).

Chains of the proteins cited; added tags and fusions are not shown. Residues count along the entry.
UniProt Q05941, 23-502 limits assumed: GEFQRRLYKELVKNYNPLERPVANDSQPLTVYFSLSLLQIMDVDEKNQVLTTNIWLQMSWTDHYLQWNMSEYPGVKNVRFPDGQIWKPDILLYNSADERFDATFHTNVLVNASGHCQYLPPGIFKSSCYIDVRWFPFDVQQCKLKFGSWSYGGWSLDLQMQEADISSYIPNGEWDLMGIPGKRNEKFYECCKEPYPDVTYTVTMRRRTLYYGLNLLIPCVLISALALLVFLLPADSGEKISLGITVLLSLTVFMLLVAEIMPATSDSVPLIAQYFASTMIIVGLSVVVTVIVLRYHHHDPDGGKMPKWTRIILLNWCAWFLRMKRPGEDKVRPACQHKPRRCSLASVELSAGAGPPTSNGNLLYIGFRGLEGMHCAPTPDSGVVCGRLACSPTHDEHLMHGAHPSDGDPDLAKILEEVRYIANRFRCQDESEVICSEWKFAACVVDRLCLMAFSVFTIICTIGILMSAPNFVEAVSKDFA

This assay has as its target α-7 nicotinic acetylcholine receptor channel expressed in HEK 293 cells (Rattus norvegicus, UniProt Q05941). As to the kind of experiment: Ca2+-sensitive fluorescence-based FLIPR assay, α7 nicotinic ACh receptor channel function (agonist). The format is cell-based.
The mark [1] stands for this setting: read-out: FLIPR α7 activity rating (EC50), Table 1, agonist Ca2+ flux.

One may read the pEC50 as the negative decadic logarithm of the EC50, by convention in mol/L.

pEC50: −log10 of the molar value. Where two headings read alike, the source gives them in different places.

For the compound `Brc1ccc2nc(NC3=NC[C@@]4(CN5CCC4CC5)O3)ccc2c1`, the negative logarithm of the EC50 (pEC50) under setting [1] is 6.00 to 7.00.

For `Brc1cnc(NC2=NC[C@@]3(CN4CCC3CC4)O2)nc1`, the pEC50 reads like this: (read-out: FLIPR α7 (EC50), Table 1, agonist Ca2+ flux) 8.40; under setting [1], greater than 7.00.

On to `COc1cc2sc(NC3=NCC4(CN5CCC4CC5)O3)nc2cc1Cl` (stereo not shown), for which, under setting [1], the pEC50 is 4.00 to 6.00.
